# Measured values published in patent US20240189287A1, “PERIPHERALLY RESTRICTED CB1 RECEPTOR BLOCKERS AND USES THEREOF” (BIONANOSIM (BNS) LTD, priority 2021, published 2024).
# Test system: MDR1-MDCKII cells
# Experiment: MDR1-MDCK II cell permeation assay (bi-directional permeability, P-gp efflux)
# Format: in vitro ADME
# Settings: 2 μM, A to B, 2.5 hours
smiles,measurement,value
CS(=O)(=O)CC(=O)NC1CCCOc2c1nn(-c1ccccc1Cl)c2-c1ccc(Cl)cc1 (stereo not shown),MDR1 Papp A:B (×10^−6 cm/s),8.86 ×10^−6 cm/s
